Measured values from publication PMC9182007, “Statistical Methods in the Study of Protein Binding and Its Relationship to Drug Bioavailability in Breast Milk” (Molecules, 2022).
Read-outs that look alike come from different tables or passages of the source.

The chains behind the UniProt entries cited, without tags or fusion partners. Residues count along the entry.
UniProt P02768, 25-609: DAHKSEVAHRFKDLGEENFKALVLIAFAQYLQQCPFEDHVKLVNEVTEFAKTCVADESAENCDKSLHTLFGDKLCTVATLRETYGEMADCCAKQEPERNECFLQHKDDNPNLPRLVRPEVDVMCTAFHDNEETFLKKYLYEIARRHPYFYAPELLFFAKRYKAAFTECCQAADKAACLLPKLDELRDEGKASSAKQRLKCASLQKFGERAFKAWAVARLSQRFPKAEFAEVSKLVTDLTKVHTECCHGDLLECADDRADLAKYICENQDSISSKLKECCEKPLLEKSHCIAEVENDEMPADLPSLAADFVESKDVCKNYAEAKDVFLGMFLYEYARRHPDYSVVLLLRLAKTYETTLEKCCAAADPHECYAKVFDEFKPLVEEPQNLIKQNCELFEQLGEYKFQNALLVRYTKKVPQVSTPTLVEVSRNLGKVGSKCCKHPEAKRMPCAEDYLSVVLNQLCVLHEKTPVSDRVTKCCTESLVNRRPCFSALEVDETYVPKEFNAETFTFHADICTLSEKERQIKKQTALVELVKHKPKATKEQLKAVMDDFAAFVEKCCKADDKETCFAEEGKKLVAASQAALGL

Tests used:
[1] = Milk-to-plasma (M/P) drug concentration ratio obtained in vivo, from literature; conditions: Table S1, scale of drug penetration into milk 1-4
[2] = ref DrugBank [7], cited from earlier work
[3] = cited from earlier work
[4] = target: T1, human serum albumin (HSA) (Homo sapiens, UniProt P02768); assay: in vitro; conditions: immobilized hsa column, pH 7.4
[5] = target: T1, human serum albumin (HSA); conditions: immobilized hsa column, pH 7.4
[6] = Table S1, milk/plasma drug concentration ratio, in vivo

Row | Compound | M/P code [1] | CNS+/- ([2]; Table S1, coded 1/0) | further results
1 | COc1ccc(CCN2CCC(Nc3nc4ccccc4n3Cc3ccc(F)cc3)CC2)cc1 [astemizol] | 4 (4 is M/P >1.20—dangerous) | 1 | M/P [3, 6]: 4.4
2 | CC(C)NCC(O)COc1ccc(COCCOC(C)C)cc1 (centres unmarked) [bisoprolol] | – | – | chromatographic logD [4]: 0.03
3 | C=CCN1C[C@H](C(=O)N(CCCN(C)C)C(=O)NCC)C[C@@H]2c3cccc4[nH]cc(c34)C[C@H]21 [carbegoline] | – | 1 | –
4 | NS(=O)(=O)c1cc(C2(O)NC(=O)c3ccccc32)ccc1Cl (centres unmarked) [chlortalidone] | – | – | chromatographic logD [4]: -0.07
5 | Cc1cc2c(s1)Nc1ccccc1N=C2N1CCN(C)CC1 [olanzapine] | 1 (Code 1 corresponds to drugs with an M/P value <0.40—completely safe) | – | –
6 | CC[C@H]1OC(=O)[C@H](C)[C@@H](O[C@H]2C[C@@](C)(OC)[C@@H](O)[C@H](C)O2)[C@H](C)[C@@H](O[C@@H]2O[C@H](C)C[C@H](N(C)C)[C@H]2O)[C@](C)(O)C[C@@H](C)/C(=N\OCOCCOC)[C@H](C)[C@@H](O)[C@]1(C)O [roxitromicin] | 1 (Code 1 corresponds to drugs with an M/P value <0.40—completely safe) | 0 | M/P [3, 6]: 0.04
7 | CC(C)(C)NC[C@H](O)COc1nsnc1N1CCOCC1 [timolol] | – | – | log kHSA [5]: -0.88; CNS+/- ([2]; Table S6, external group, coded 1/0): 0; M/P ([3]; Table S6, external group (n = 38)): 0.80
8 | CN(C)CCc1c[nH]c2ccc(C[C@H]3COC(=O)N3)cc12 [zolmitriptane] | – | 1 | –
